Patent publication US6864054B1, “Polypeptides from CREB binding protein and related protein p300 for use in transcriptional regulation” (Institute of Molecular and Cell Biology, priority 1998, dated 2005)

System: p53-dependent transcription
Assay: p53-responsive PG13CAT reporter in U-2 OS cells
Assay type: cell-based
Method: Transfections and CAT assays. U-2 OS cells or MRC5.SV40 cells (a gift from Dr. Peter Karran) were plated onto 10 cm-diameter culture dishes and transfected at 50-70% confluency using lipofectin reagent (GIBCO-BRL) as described previously (O'Connor et al., 1996). Chloramphenicol acetyl transferase (CAT) assays have also been described previously (O'Connor et al., 1996) and the data presented represents between three and ten independent transfection experiments.
Transfections and CAT assays. U-2OS cells were plated onto 10-cm-diameter culture dishes and transfected at 50-70% confluency using lipofectin reagent (GIBCO-BRL). Chloramphenicol acetyl transferase (CAT) assays have been described elsewhere (O'Conner & Bernard, 1995) and the data presented represent between three and eight experiments using at least two independent DNA preparations.

With “full-length Mdm2: Full-length Mdm2 (1-491) expressed by co-transfection” the “effect on TRAM activation of p53 by CBP” value (co-transfection with CMV-GST-CBP (1808-1852)) was “abolished” and the “effect on p53-dependent transcription” value (co-transfection with PG13CAT) was “reduction in p53-dependent reporter activity”.
